Measurements: ChEMBL document CHEMBL3351571, “Peptidomimetics of Arg-Phe-NH2 as small molecule agonists of Mas-related gene C (MrgC) receptors” (Bioorg Med Chem, 2014)

How the values were obtained:
MrgC (Rattus norvegicus) = experiment: Agonist activity at rat MrgC transfected in HEK293 cells at 2 uM by FLIPR assay
[1] = target: Mas-related G-protein coupled receptor member X1 (Homo sapiens, UniProt Q96LB2); experiment: Antagonist activity at human MrgX1 transfected in HEK293 cells at 200 uM by FLIPR assay; type: cell-based

| SMILES | Activity (MrgC (Rattus norvegicus)) | Activity [1] |
| --- | --- | --- |
| COc1ccc(-c2ccc(C(=O)Nc3cccc(Cn4ncc(N5CCNCC5)cc4=O)c3C)cc2)cn1 | inactive |  |
| N=C(N)NCCC[C@H](N)C(=O)N[C@@H](Cc1ccccc1)C(N)=O |  | inactive |

Calls of active or inactive are those of the source. No cut-off for these calls is given here.
